Data on 3 molecules can be found in ChEMBL document CHEMBL2218924, “A broad activity screen in support of a chemogenomic map for kinase signalling research and drug discovery” (Biochem J, 2013).

Amino acid sequences for entries named in this document (tags omitted). A change or cut given only in a name is not applied to a line headed by its entry.
UniProt P20248, whole entry, looked up: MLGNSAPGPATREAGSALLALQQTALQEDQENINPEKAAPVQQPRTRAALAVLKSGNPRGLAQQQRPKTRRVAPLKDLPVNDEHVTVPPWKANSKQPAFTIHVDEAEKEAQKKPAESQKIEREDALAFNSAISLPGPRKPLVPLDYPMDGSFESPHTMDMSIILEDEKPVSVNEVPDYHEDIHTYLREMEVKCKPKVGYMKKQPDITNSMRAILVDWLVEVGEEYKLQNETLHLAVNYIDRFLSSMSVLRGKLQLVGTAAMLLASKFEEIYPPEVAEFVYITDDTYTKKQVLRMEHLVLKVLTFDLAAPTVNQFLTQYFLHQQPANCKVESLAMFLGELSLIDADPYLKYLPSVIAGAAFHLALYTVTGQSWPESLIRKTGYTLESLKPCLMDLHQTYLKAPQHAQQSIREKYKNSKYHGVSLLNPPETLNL
UniProt P78396: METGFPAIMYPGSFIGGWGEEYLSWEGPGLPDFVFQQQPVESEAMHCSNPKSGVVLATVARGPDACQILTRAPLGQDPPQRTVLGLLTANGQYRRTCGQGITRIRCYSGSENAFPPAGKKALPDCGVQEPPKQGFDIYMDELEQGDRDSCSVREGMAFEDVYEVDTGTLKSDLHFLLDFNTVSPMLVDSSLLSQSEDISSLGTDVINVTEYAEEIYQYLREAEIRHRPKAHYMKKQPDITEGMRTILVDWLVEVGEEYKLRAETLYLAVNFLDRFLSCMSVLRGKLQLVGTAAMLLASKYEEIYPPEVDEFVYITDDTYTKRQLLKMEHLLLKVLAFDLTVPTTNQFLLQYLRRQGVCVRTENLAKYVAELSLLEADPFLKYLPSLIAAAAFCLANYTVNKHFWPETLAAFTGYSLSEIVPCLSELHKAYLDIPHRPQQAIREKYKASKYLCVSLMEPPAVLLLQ
UniProt P21802, whole entry, looked up: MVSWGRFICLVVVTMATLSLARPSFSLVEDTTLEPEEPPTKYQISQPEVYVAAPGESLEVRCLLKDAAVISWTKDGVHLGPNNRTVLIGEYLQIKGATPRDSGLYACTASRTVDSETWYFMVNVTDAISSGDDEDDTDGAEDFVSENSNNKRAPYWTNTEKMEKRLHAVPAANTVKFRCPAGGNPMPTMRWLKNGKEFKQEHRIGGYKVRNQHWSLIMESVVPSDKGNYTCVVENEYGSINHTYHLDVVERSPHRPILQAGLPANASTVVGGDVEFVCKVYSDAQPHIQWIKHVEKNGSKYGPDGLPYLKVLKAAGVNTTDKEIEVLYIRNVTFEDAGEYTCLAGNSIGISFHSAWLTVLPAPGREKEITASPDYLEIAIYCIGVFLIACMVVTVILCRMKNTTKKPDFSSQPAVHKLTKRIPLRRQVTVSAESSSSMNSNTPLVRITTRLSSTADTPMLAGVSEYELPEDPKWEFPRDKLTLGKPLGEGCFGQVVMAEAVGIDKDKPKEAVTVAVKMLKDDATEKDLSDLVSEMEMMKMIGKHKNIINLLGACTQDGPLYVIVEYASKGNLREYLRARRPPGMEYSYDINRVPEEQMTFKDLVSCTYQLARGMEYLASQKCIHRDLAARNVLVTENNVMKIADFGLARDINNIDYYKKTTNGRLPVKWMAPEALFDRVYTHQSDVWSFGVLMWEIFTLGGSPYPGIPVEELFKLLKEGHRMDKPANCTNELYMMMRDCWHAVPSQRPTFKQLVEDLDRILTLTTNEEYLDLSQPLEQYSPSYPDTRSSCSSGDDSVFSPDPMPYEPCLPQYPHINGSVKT
UniProt Q9HCP0: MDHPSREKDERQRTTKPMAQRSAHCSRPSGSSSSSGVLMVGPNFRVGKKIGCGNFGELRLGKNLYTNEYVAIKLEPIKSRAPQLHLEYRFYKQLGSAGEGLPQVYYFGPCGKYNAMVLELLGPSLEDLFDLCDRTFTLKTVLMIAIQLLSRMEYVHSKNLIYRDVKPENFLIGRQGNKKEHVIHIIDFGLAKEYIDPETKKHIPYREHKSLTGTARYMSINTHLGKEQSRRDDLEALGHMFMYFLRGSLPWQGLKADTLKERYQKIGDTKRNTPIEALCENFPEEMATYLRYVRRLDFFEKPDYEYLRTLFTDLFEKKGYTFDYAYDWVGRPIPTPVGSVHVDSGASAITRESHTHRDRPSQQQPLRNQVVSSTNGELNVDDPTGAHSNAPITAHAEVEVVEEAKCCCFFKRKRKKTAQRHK
UniProt O75676: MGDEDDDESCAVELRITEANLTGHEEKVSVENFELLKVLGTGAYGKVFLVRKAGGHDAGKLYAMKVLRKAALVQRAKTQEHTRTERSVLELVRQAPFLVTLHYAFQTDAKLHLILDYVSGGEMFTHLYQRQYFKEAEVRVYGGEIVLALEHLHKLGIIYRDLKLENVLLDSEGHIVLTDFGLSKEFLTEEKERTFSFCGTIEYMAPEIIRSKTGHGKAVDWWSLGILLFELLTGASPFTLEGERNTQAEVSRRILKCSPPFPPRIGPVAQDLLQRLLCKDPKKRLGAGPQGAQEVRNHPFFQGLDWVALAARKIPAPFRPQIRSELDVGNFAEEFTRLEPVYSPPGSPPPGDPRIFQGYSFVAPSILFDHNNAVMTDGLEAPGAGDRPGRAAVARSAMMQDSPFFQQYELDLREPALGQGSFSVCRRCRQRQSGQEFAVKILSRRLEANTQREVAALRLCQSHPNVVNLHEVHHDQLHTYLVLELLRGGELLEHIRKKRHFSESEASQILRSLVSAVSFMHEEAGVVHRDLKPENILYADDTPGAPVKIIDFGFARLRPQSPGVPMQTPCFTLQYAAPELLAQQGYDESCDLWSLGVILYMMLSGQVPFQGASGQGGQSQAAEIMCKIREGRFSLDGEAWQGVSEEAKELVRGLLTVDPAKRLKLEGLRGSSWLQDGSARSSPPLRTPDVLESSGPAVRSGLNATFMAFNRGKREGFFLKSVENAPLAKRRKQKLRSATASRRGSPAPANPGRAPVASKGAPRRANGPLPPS
UniProt P00519, whole entry: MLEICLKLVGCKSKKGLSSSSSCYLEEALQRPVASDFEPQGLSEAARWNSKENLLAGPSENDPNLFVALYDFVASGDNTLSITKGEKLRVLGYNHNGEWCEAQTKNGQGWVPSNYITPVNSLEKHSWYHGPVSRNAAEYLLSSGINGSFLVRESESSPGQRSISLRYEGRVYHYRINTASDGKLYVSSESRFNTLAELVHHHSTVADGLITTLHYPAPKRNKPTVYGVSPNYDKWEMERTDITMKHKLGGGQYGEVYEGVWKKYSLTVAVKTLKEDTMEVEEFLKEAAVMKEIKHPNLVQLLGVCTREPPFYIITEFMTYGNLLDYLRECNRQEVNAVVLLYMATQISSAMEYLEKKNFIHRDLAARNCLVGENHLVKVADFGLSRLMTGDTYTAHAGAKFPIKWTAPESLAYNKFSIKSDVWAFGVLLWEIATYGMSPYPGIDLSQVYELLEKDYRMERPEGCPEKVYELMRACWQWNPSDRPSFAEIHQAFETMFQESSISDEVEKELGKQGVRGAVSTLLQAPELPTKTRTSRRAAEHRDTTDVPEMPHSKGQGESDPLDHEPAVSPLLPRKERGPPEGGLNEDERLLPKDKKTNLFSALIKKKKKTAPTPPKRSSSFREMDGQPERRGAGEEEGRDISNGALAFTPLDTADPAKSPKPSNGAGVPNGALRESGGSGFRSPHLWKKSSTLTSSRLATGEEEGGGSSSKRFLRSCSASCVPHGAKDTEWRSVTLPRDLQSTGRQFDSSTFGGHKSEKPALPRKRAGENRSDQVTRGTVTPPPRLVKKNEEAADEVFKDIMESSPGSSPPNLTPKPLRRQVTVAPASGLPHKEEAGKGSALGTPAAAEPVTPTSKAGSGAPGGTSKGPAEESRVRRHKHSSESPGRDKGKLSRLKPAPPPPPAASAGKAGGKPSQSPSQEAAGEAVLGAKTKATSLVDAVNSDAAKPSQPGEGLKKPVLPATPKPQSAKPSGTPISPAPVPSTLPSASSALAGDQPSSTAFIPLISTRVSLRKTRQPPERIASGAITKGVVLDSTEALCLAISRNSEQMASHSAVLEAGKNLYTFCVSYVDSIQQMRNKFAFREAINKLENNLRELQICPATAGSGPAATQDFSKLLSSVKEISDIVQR

The target in test [1] is Cyclin-dependent kinase 2/cyclin A (Homo sapiens) (UniProt P24941+P20248+P78396). The following applies: at 10 µM.
For test [2], the target named is Fibroblast growth factor receptor 2 (Homo sapiens) (UniProt P21802). The following applies: at 10 µM.
The target of test [3] is T1, Phosphorylase b kinase gamma catalytic chain, liver/testis isoform (Homo sapiens) (UniProt P15735).
T1 sequence (whole entry): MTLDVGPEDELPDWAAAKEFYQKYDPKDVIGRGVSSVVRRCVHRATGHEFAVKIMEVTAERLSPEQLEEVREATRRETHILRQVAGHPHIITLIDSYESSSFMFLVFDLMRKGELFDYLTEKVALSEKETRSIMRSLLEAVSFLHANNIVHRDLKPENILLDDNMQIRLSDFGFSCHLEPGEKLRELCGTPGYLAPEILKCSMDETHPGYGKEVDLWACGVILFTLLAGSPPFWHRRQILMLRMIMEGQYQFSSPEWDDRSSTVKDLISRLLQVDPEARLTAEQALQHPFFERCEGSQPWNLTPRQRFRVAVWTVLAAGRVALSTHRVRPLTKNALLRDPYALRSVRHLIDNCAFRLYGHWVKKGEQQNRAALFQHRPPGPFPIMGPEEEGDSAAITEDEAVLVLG
As to conditions: at 1 µM.

The target of test [4] is Casein kinase I isoform gamma-1 (Homo sapiens) (UniProt Q9HCP0). As to conditions: at 1 µM.
In test [5] the target is T2, Serine/threonine-protein kinase Sgk1 (Homo sapiens) (UniProt O00141).
T2 sequence (whole entry): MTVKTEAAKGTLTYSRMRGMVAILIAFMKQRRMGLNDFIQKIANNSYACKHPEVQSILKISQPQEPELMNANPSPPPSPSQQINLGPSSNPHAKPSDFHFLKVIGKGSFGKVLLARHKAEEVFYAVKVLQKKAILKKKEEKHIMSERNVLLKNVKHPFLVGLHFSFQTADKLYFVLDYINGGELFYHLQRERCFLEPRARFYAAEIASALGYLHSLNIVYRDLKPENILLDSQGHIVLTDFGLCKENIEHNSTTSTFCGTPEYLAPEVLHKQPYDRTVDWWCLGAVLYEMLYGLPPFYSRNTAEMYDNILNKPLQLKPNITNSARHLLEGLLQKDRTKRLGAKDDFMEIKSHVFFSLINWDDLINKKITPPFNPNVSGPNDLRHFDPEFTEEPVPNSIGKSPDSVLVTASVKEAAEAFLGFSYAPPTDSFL
As to conditions: at 10 µM.

Test [6] deals with Ribosomal protein S6 kinase alpha-4 (Homo sapiens) (UniProt O75676). The following applies: at 10 µM.
Test [7] addresses Tyrosine-protein kinase ABL1 (Homo sapiens) (UniProt P00519). The following applies: at 10 µM.

Structures are written as SMILES. For some of these results: The strong results were mostly taken out for another list; the other results follow. The list shows a part of the results, in another mix than the full data.

Usually residual activity stands for the signal under treatment as a percentage of the control signal. `N#C/C(=C(\N)Sc1ccc(N)cc1)c1ccccc1C(F)(F)F`: the residual activity worked out at 81% in test [1], 82% in test [2] and 113% in test [3].
On to `Cc1nc2cc3nc(-c4cccs4)cnc3cc2n1C`, for which the residual activity worked out at 102% in test [4], 109% in test [5] and 108% in test [6].
Turning to `Cc1cc(Nc2nc(-c3ccccc3)nc3ccccc23)n[nH]1`, the residual activity in test [7] amounted to 15%.
